Measurements from paper PMC6375636, “Monotherapy with a low-dose lipopeptide HIV fusion inhibitor maintains long-term viral suppression in rhesus macaques” (PLoS Pathogens, 2019).
Peptide text beside a SMILES is read from it. * marks the point of attachment. Stearoyl = CCCCCCCCCCCCCCCCCC(=O)*

Tests used:
HIV-1NL4-3 pseudovirus = assay: Ex vivo inhibitory activity of sera from monkeys administrated LP-80 (single-cycle infection assay); format: in vivo, Chinese rhesus macaques
Method: (§1) A single-cycle infection assay was performed to determine the inhibitory activity of the monkey sera on HIV-1NL4-3 pseudovirus. The 50% effective concentration was defined as the fold serum dilution that inhibited 50% of virus infection.

in vivo [1] = details: Sprague-Dawley, rat, 6 mg/kg
in vivo [2] = assay: in vivo
Method: as §1

[3] = rats, 6 mg/kg, 72 h after injection
[4] = tested on: HIV-1 pseudovirus, primary Env BJOX002000.03.2; format: cell-based; details: Env BJOX002000.03.2, subtype B/C; mean ± SD of 3 assays in triplicate
Method: The inhibitory activities of inhibitors against HIV-1 pseudoviruses and replication-competent isolates were measured as described previously. Briefly, HIV-1 pseudoviruses were generated via the cotransfection of HEK293T cells with an Env-expressing plasmid and a backbone plasmid that encodes Env-defective, luciferase-expressing HIV-1 genome (pSG3Δenv). Viral stocks of replication-competent HIV-1 isolates were generated by transfecting viral molecular clones into HEK293T cells. Culture supernatants were harvested at 48 h posttransfection, and 50% tissue culture infectious doses (TCID50) in TZM-bl cells were determined. Inhibitors were prepared in 3-fold dilutions, mixed with 100 TCID50 of a virus, and then incubated for 1 h at room temperature. The mixture was added to TZM-bl cells (10^4/well), and the cells were incubated for additional 48 h at 37°C. Luciferase activity was measured as described above.

SMILES | Mean fold serum dilution that inhibited 50% of virus infection (HIV-1NL4-3 pseudovirus; monkey sera 96 h after SC 3 mg/kg) | Mean fold serum dilution that inhibited 50% of virus infection (HIV-1NL4-3 pseudovirus; monkey sera 120 h after SC 3 mg/kg) [fold] | Mean fold serum dilution that inhibited 50% of virus infection (HIV-1NL4-3 pseudovirus; monkey sera 168 h after SC 3 mg/kg) [fold] | half-life (in vivo [1]; iv) [h] | half-life (in vivo [1]; sc) [h] | level at 72 h (in vivo [2]; rhesus monkey, in vivo, sc, 3 mg/kg) [ng/mL] | Serum concentration, fold higher than the IC50 value 7.09 pM (in vivo [2]; rhesus monkeys, SC 3 mg/kg, 72 h) | Serum concentration, fold higher than the measured IC50 value (in vivo [2]; rhesus monkeys, SC 3 mg/kg, 168 h) [fold] | Serum concentration, fold higher than the mean IC50 value (7.09 pM) [3] [fold] | IC50 [4] [nM]
CCCCCCCCCCCCCCCCCC(=O)NCCCC[C@H](NC(=O)[C@H](CCC(=O)O)NC(=O)[C@H](CC(C)C)NC(=O)[C@H](CCCCN)NC(=O)[C@H](CCCCN)NC(=O)[C@H](CC(C)C)NC(=O)[C@H](CCC(=O)O)NC(=O)[C@H](CCC(=O)O)NC(=O)[C@H](CCC(=O)O)NC(=O)[C@H](CC(N)=O)NC(=O)[C@H](CCCCN)NC(=O)[C@H](CCCCN)NC(=O)[C@H](CCC(N)=O)NC(=O)[C@H](CCC(N)=O)NC(=O)[C@H](CCC(=O)O)NC(=O)[C@H](CCC(=O)O)NC(=O)[C@H](C)NC(=O)[C@H](CCCCN)NC(=O)[C@H](CCCCN)NC(=O)[C@H](CC(C)C)NC(=O)[C@H](CC(C)C)NC(=O)[C@H](CCC(=O)O)NC(=O)[C@H](CCC(=O)O)NC(=O)[C@@H](NC(=O)[C@H](CCCCN)NC(=O)[C@H](CCC(N)=O)NC(=O)[C@H](CCC(=O)O)NC(=O)[C@H](Cc1c[nH]c2ccccc12)NC(C)=O)[C@@H](C)CC)C(N)=O [LP-80] (Ac-WEQKIEELLKKAEEQQKKNEEELKKLEK(Stearoyl)-NH2) | 1,980 fold | 211 | 31 | 6.04 ± 0.85 | 6.28 ± 1.03 | 1150 | 42,062 fold | 330 | 257 | –
CCCCCCCCCCCCCCCCCC(=O)NCCCC[C@H](NC(=O)[C@H](CCC(=O)O)NC(=O)[C@H](CC(C)C)NC(=O)[C@H](CCCCN)NC(=O)[C@H](CCCCN)NC(=O)[C@H](CC(C)C)NC(=O)[C@H](CCC(=O)O)NC(=O)[C@H](CCC(=O)O)NC(=O)[C@H](CCC(=O)O)NC(=O)[C@H](CC(N)=O)NC(=O)[C@H](CCCCN)NC(=O)[C@H](CCCCN)NC(=O)[C@H](CCC(N)=O)NC(=O)[C@H](CCC(N)=O)NC(=O)[C@H](CCC(=O)O)NC(=O)[C@H](CCC(=O)O)NC(=O)[C@H](C)NC(=O)[C@H](CCCCN)NC(=O)[C@H](CCCCN)NC(=O)[C@H](CC(C)C)NC(=O)[C@H](CC(C)C)NC(=O)[C@H](CCC(=O)O)NC(=O)[C@H](CCC(=O)O)NC(=O)[C@@H](NC(C)=O)[C@@H](C)CC)C(N)=O [LP-90] | – | – | – | – | – | – | – | – | – | 0.0139 ± 0.00246
